The list shows a part of the results, in another mix than the full data. The source made the active and inactive calls. No stated cut-off is given here; in the data, active means inhibition above about 50%; inactive means the rest.

From PubChem BioAssay AID1159606 (Sanford-Burnham Center for Chemical Genomics, 2016) come the findings set out here.

A short description of the test: blockers of TWEAK-induced Fn14 reporter activity – luciferase reporter cells, uHTS, primary screen (AID 1159606). Conditions: TWEAK-stimulated Fn14 reporter cells, luciferase luminescence, 8 h; at 10 µM; active compounds read high. (In general: A reporter such as luciferase makes a cellular process visible.)
With `COC(=O)c1cc2c(s1)N=C(c1ccccc1)N(C)P2(=O)N1CCOCC1` (centres undefined), the inhibition was inactive: -9.54%.

Consider `CC(=O)NC(SC(=S)N(CC(C)C)CC(C)C)C(Cl)(Cl)Cl` (centres undefined), for which the inhibition was inactive: 15.2%.

On to `Cc1ccc(OP(=O)(Nc2ccccn2)Oc2ccc(C)cc2)cc1`, for which the inhibition is inactive: -4.96%.

With `O=C(OC1CN2CCC1CC2)c1ccccc1` (centres undefined), the inhibition is inactive: -6.95%.

As to `CCC(=O)N1C2C3N(C(=O)CC)C1C1N(C(=O)CC)C(C(N1C(=O)CC)N3C(=O)CC)N2C(=O)CC`, the inhibition is inactive: -17.9%.

`Cc1ccccc1OP(=O)(Nc1ccccn1)Oc1ccccc1C`: the inhibition is inactive: 12.2%.

Take `CC(NC(=O)COC(=O)C(O)(c1ccccc1)c1ccccc1)c1ccccc1` (centres undefined): the inhibition was inactive: 9.93%.

Consider `CN(C)C(=O)Oc1noc2ccccc12`, for which the inhibition was inactive: -10.4%.

`O=c1c2cc([N+](=O)[O-])ccc2[nH]c2c([N+](=O)[O-])cc([N+](=O)[O-])cc12`: the inhibition was active: 96.2%.

`O=C(NC1CCS(=O)(=O)C1)NP(=S)(Oc1ccccc1)Oc1ccccc1` (centres undefined): the inhibition is inactive: 8.76%.

For the compound `CCNC(=S)/N=C(\N)N[N+](=O)[O-]`, the inhibition was inactive: -6.43%.

In the case of `c1ccc(-c2nn[nH]n2)c(-c2nn[nH]n2)c1`, the inhibition is inactive: 14.5%.

For `Cc1ccc(NP(=O)(Oc2cccc(C)c2)Oc2cccc(C)c2)nc1`, the inhibition is inactive: -11%.

As for `O=P1(N(CCCl)CCCl)OCCC2CCCCN21` (centres undefined), the inhibition is inactive: -2.86%.

As for `N#C/C(=C\c1ccc(N(CCBr)CCBr)cc1)C(N)=O`, the inhibition was inactive: -8.6%.

Consider `CC(=O)c1ccc(N2CC2c2ccncc2)cc1` (centres undefined), for which the inhibition is inactive: 1.54%.

In the case of `COC(=O)C1(C)COP(=O)(NCc2ccccc2)OC1` (centres undefined), the inhibition was inactive: 0.14%.

For `Cc1ccccc1CN(C)C(=O)COC(=O)C(O)(c1ccccc1)c1ccccc1`, the inhibition is inactive: 1.72%.

Turning to `C[C@@H]1C=CCP(=O)(Oc2ccccc2)O1` (some centres undefined), the inhibition was inactive: -7.2%.

On to `C[C@H]1OP(=O)(Oc2ccccc2)C[C@@H]2O[C@@H]21` (some centres undefined), for which the inhibition is inactive: 6.67%.

As to `CC(=O)Nc1ccc([As](=O)(O)O)c(O)c1`, the inhibition is inactive: -4.45%.

`CC(=O)Nc1ccc(Oc2c([N+](=O)[O-])cc([N+](=O)[O-])cc2[N+](=O)[O-])cc1`: the inhibition was inactive: 18%.

On to `O=P1(Nc2nc3ccc(Cl)cc3s2)COc2ccccc2O1` (centres undefined), for which the inhibition was inactive: -3.54%.

For `CCOc1ccc(C2=NCC(CBr)S2)cc1` (centres undefined), the inhibition was inactive: 14.9%.

On to `CCc1cc(O)c([N+](=O)[O-])c(C)c1[N+](=O)[O-]`, for which the inhibition was inactive: 8.74%.

For `CC(C)(C)C(=O)NC(Sc1ccccc1)C(Cl)(Cl)Cl` (centres undefined), the inhibition was inactive: -1.12%.

Take `O=P(Nc1nccs1)(c1ccccc1)c1ccccc1`: the inhibition is inactive: 5%.

For `CC(C)C(=O)NC(Sc1ccccc1)C(Cl)(Cl)Cl` (centres undefined), the inhibition is inactive: 30.5%.

Consider `c1nnnn1CCn1cnnn1`, for which the inhibition was inactive: 3.28%.

Turning to `CC(=O)NC(SC(=S)N(C)C)C(Cl)(Cl)Cl` (centres undefined), the inhibition is inactive: -10.3%.

Regarding `O=[N+]([O-])c1ncn(CCn2cnc([N+](=O)[O-])n2)n1`, the inhibition was inactive: -0.45%.

With `O=[N+]([O-])c1ccc(O)c(/C=N/Nc2ccc([N+](=O)[O-])cc2[N+](=O)[O-])c1`, the inhibition is active: 79.4%.

For the compound `O=[As](O)(c1ccccc1)c1ccc(O)cc1`, the inhibition was inactive: 1.67%.

Take `Nc1ccc([As](=O)(O)c2ccc([N+](=O)[O-])cc2)cc1`: the inhibition was inactive: 4.05%.

`C(Cc1nn[nH]n1)Cc1nn[nH]n1`: the inhibition was inactive: 0.91%.

Consider `O=C(OC1CN2CCC1CC2)c1cccc(Cl)c1` (centres undefined), for which the inhibition is inactive: 9.95%.

Regarding `Nc1ccc(CCCCOc2ccccc2)cc1`, the inhibition is inactive: -8.04%.

For `COc1ccc(N)c([N+](=O)[O-])c1[N+](=O)[O-]`, the inhibition is inactive: 13.9%.

Turning to `CN(C)C1(CNC(=O)c2ccc(Cl)c(S(N)(=O)=O)c2)CCCCC1`, the inhibition is inactive: -0.55%.

In the case of `O=P(Nc1ccccn1)(c1ccc(Br)cc1)c1ccc(Br)cc1`, the inhibition was inactive: -8.56%.

Consider `O=P(Nc1nc2ccccc2s1)(c1ccccc1)c1ccccc1`, for which the inhibition was inactive: 8.24%.

Take `C[C@H]1OP(=O)(Oc2ccccc2)[C@H](O)[C@H](O)[C@H]1N=[N+]=[N-]` (some centres undefined): the inhibition was inactive: 5.94%.

`CC(C)(C)C(=O)NC(Sc1ccncn1)C(Cl)(Cl)Cl` (centres undefined): the inhibition was inactive: 3.29%.

Take `O=[N+]([O-])c1ncn(CCn2ncnc2[N+](=O)[O-])n1`: the inhibition was inactive: -12.7%.

In the case of `O=[N+]([O-])c1cccc(NC2=NCC(CBr)S2)c1` (centres undefined), the inhibition was inactive: -19%.

Turning to `COC(=O)C1(C)COP(=O)(Nc2ccccc2)OC1` (centres undefined), the inhibition is inactive: 14.4%.

For the compound `O=C(O)CNc1ccc([As](=O)(O)O)cc1`, the inhibition was inactive: 14.2%.

Consider `O=P1(N(CCCl)CCCl)OCCCS1` (centres undefined), for which the inhibition was inactive: 4.75%.

With `O=C(Nc1cc([As](=O)(O)O)ccc1O)c1ccccc1`, the inhibition is inactive: 14.4%.

Take `Nc1ccc([As](=O)(O)c2ccc(N)cc2)cc1`: the inhibition is inactive: -3.34%.

Turning to `C[N+]1=C2C=CC=CC=C2SC12C([N+](=O)[O-])=CC([N+](=O)[O-])=C[C-]2[N+](=O)[O-]` (centres undefined), the inhibition is inactive: -15.9%.

Turning to `CCN(/C(=N/P(=O)(N1CCOCC1)N1CCOCC1)N1CCOCC1)c1ccc(OC)cc1`, the inhibition was inactive: 3.39%.

Consider `CC(C)=N/N=C(\N)N[N+](=O)[O-]`, for which the inhibition was inactive: 5.4%.

Consider `CC(C)c1nc(Nc2ccccc2)n(P(=O)(N(C)C)N(C)C)n1`, for which the inhibition is inactive: 7.4%.

As to `CN(C)C(=O)OCCc1n(C)cc[n+]1C`, the inhibition was inactive: 12.3%.

Take `c1cc(-c2nn[nH]n2)ccc1-c1nn[nH]n1`: the inhibition was inactive: -4.88%.

In the case of `CC1CCN(C(=O)Oc2c(Cl)cc(Cl)c3cccnc23)CC1`, the inhibition is inactive: -21.5%.

As to `COc1ccc(C2=NCC(CBr)S2)cc1` (centres undefined), the inhibition is inactive: -11.9%.

For the compound `CC(=O)N1C2C3N(C(C)=O)C1C1N(C(C)=O)C(C(N1C(C)=O)N3C(C)=O)N2C(C)=O`, the inhibition was inactive: -4.58%.

For the compound `O=[N+]([O-])c1cccc2n[nH]nc12`, the inhibition was inactive: 3.58%.

On to `Cc1ccc(NP(=O)(Oc2ccccc2)Oc2ccccc2)nc1`, for which the inhibition is inactive: -12%.

As for `O=[N+]([O-])c1cc([N+](=O)[O-])c(CCNc2ccccc2)c([N+](=O)[O-])c1`, the inhibition was inactive: 10.1%.

Take `CCc1nc2c(n1)c1c(non1O)c1c2no[n+]1[O-]`: the inhibition was inactive: 35.7%.

For the compound `CC(C)CC(=O)NC(Sc1ccc(Cl)cc1)C(Cl)(Cl)Cl` (centres undefined), the inhibition was inactive: 7.35%.

One may read the inhibition as the change of the read-out against control, counted positive when it falls.
